miR-21 reporter – raises the signal of a miR-21 reporter | HeLa miR-21 FLuc reporter, luciferase, 48 h | Potency, µM (highest dose often 38.3 µM) | 340,000 tested, under 10 active | AID 2288; active = well fitted rising curve with a large enough effect; inconclusive = small, poorly fitted or top-dose-only effect; inactive = no such curve, though single readings can be large or run the other way;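 also: miR-21 action dims this reporter so a rising signal means less miR-21 action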
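Luminescence from a firefly luciferase reporter carrying a miR-21 binding site downstream, stably expressed under a CMV promoter in HeLa cells that make miR-21 endogenously, reports miRNA modulation after 48 h compound exposure up to approximately 40uM final.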
HEK293 tox – cytotoxicity counter-screen for GLP-1 receptor inverse agonists; HEK293 cAMP-luciferase reporter cells, luminescence, 24 h; Potency, µM (top dose mostly 38.3 µM), most hits filed as inhibitors; actives 0.13% (n = 410,000);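 also: loss of luciferase light is scored as toxicity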
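Luminescence readout: signal drop marks cytotoxicity. Plated cells grew 12 h at 37 °C, 5% CO2, received 23 nL compound for 24 h, then got luciferase reagent, read after 12 min at RT.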
GLP1R ag – GLP-1 receptor (human) agonism; actives 0.007% (n = 380,000); Potency, µM (series often up to 45.6 µM), usual class: activators; AID 624172; HEK293 GLP-1R CRE-luciferase, luminescence, 4-6 h; cells express a hypersensitive GLP-1R form; P43220
Pin1 inhibitor – blocks the human prolyl isomerase Pin1. actives 0.009% (n = 390,000). Pin1 FP peptide displacement, HiFluor488, 10 min. AID 504891. Potency, µM (doses to about 115 µM), most hits filed as inhibitors; active = well fitted inhibition curve with a large enough effect in the polarisation, with a control signal flat, not every such curve was filed as active; inconclusive = small, poorly fitted or top-dose-only effect, or effect the other way, or a change in a side signal; inactive = no such curve, though single readings can be large or run the other way; the % refers to the polarisation
GLP-1R inv ag – acts as inverse agonist at human GLP-1 receptor. HEK293 GLP-1R CRE-luciferase, luminescence, 24 h; GLP-1R form is constitutively active. Potency, µM (titrated, usually from 38.3 µM), most hits filed as inhibitors. actives 1.6% (n = 410,000). AID 624417; also: nearly all actives have a fitted effect of over 55% in size
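Cells are plated, allowed 12 hours at 37 deg C, then treated with compounds for 24 hr before luciferase detection reagent is added and luminescence is read after 12 min at room temperature. The HEK293 line carries constitutively active GLP-1R with a cAMP-responsive reporter.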
PTHR1 ag – activates the human parathyroid hormone receptor PTHR1; HEK293 GP2 PTHR1 cells, GloSensor cAMP luminescence, 1 h; actives 0.075% (n = 410,000); Potency, µM (top dose mostly 115 µM), actives largely listed as activators; Q03431; also: nearly all actives have a fitted effect of over 55% in size
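HEK-293-derived GP2 cells expressing PTHR1 and a GloSensor cAMP reporter, 3,000/well, plated overnight, given luciferin plus IBMX (each 0.5 mM as added) for 1 h at 37 °C, then compound for 1 h at 37 °C. Luminescence was read after 15 min at room temperature.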
A number is an active result; . = inactive; ? = inconclusive; / = no result. Sampled rows, rich in hits. Any-hit rate of the full collection: about 1.7%. Unless noted, calls follow the shape of the dose curve; as a rule, active = well fitted curve in the direction sought with a large enough effect; inconclusive = small, poorly fitted or top-dose-only effect, or another doubt; inactive = no such curve, though single readings can be large; an effect the other way counts as inactive or inconclusive.

SMILES | miR-21 reporter | HEK293 tox | GLP1R ag | Pin1 inhibitor | GLP-1R inv ag | PTHR1 ag
Cn1ccnc1C(=O)c1cc(SCC(=O)NC2CC2)nc2ccccc12 | . | . | . | . | . | .
CCOC(=O)c1c(C)[nH]c(C)c1S(=O)(=O)N1CCCC(C(=O)Nc2cccc(CC)c2)C1 (stereo not given) | . | . | / | . | . | .
CCn1c(=O)c(C(=O)NCCN2CCCCC2)c(O)c2ccccc21 | . | ? | . | . | 2.8µM | .
O=C(NC1CCCCCC1)c1c(O)c2cccc3c2n(c1=O)CCC3 | . | / | / | / | / | /
CCCCCCNC(=O)c1c(O)c2cccc3c2n(c1=O)CCC3 | . | . | . | . | . | .
CNC(=O)c1c(O)c2cccc3c2n(c1=O)CCC3 | . | ? | . | . | 1.8µM | .
CCN(CC)CCNC(=O)c1c(O)c2cccc3c2n(c1=O)CCC3 | . | ? | . | . | 4.5µM | .
CC1CCc2cc(F)cc3c2N1C(=O)C(C(=O)Nc1cnccn1)C3=O (stereo not given) | / | / | / | . | / | /
O=C(CSc1nccn1Cc1ccccc1)Nc1ccc2c(c1)OCO2 | . | . | / | . | . | .
COc1ccc(-n2cnc3c(c2=N)C(c2cccc(OC)c2)c2c(ccc4ccccc24)O3)cc1 (stereo not given) | / | / | / | . | / | /
O=C(OCC#CCSc1nnc(-c2c[nH]c3ccccc23)o1)c1ccc(F)cc1 | / | / | / | . | / | /
CCOc1ccc(CNC(=O)c2ccc(Sc3ccc(C)cc3)c(N)c2)cc1OC | . | . | / | . | ? | .
Cc1ccc(NC(=O)Nc2cc(C(F)(F)F)c[nH]c2=O)cc1 | . | . | . | . | 10µM | .
O=C(CCl)N=c1sccn1Cc1ccc(Cl)cc1Cl | ? | ? | . | . | 10µM | .
CCCCCC(=O)NC(Nc1ccc(S(N)(=O)=O)cc1)C(Cl)(Cl)Cl (stereo not given) | . | . | . | . | . | .
CCCCCCC(=O)NC(Nc1ccc(S(N)(=O)=O)cc1)C(Cl)(Cl)Cl (stereo not given) | . | . | . | . | 8.9µM | .
CNc1nc(-c2ccccc2)c(-c2ccccc2)s1 | / | / | / | . | / | /
Cc1nnc(N2CCC(C(=O)N3CCCCC3)CC2)c2nn(-c3ccccc3)c(C)c12 | . | . | / | . | . | ?
CCC(CC)C(=O)N1N=C(c2ccc(NS(C)(=O)=O)cc2)CC1c1ccccc1 (stereo not given) | . | . | . | . | ? | .
CCC(CC)C(=O)N1N=C(c2ccc(NS(C)(=O)=O)cc2)CC1c1ccc(C)cc1 (stereo not given) | . | . | . | . | 8.9µM | .
Cc1nn(CCCC(=O)NCc2ccccc2)c(=O)c2cc3sccc3n12 | . | . | / | . | . | .
CC1CCc2nc3sc4c(c3c(N)c2C1)CCCC4 (stereo not given) | . | ? | . | . | ? | .
CC1CCc2c(nc3sc4c(c3c2N)CCCC4)C1 (stereo not given) | . | ? | . | . | 5.6µM | .
CC(C)=CCCC(C)CN1CCC(N2CCC(C(=O)N3CCOCC3)CC2)CC1 (stereo not given) | . | . | . | . | 2.5µM | .
CCCC1OC2C[C@@H]3[C@H]4CCC5=CC(=O)C=C[C@]5(C)[C@H]4C(O)C[C@]3(C)[C@]2(C(=O)CO)O1 (stereo not given in full) | / | / | / | . | / | /
SMILES | miR-21 reporter | HEK293 tox | GLP1R ag | Pin1 inhibitor | GLP-1R inv ag | PTHR1 ag
CC(=O)c1ccc(-c2ccc([C@H]3[C@@H]4C=CCC[C@@]4(C)C(=O)N3Cc3ccccc3)c(F)c2)cc1 | ? | . | . | . | 11µM | .
COc1ccc(-c2cc([C@H]3[C@@H]4C=CCC[C@@]4(C)C(=O)N3Cc3ccccc3)ccc2F)cc1 | . | . | . | ? | 10µM | .
COc1ccc(Br)cc1[C@H]1[C@@H]2C=CCC[C@@]2(C)C(=O)N1Cc1ccccc1 | . | . | . | ? | 4.5µM | .
Cc1ccc(-c2ccc(C3C4C=CCCC4(C)C(=O)N3Cc3ccccc3)c(F)c2)cc1 (stereo not given) | / | / | / | . | / | /
COc1ccc(Br)cc1C1C2C=CCCC2(C)C(=O)N1Cc1ccccc1 (stereo not given) | / | / | / | . | / | /
CCc1ccc(-n2nnc(-c3nc(-c4ccc(C)cc4)no3)c2N)cc1 | . | . | / | . | . | .
COc1cc(OC)c(N(C)C(=O)c2nn(C)c3c2CSc2ccccc2-3)cc1Cl | . | . | / | . | . | .
CC1(C#N)c2ccccc2C(Br)=CN1C(=O)c1ccccc1 (stereo not given) | / | . | . | ? | . | .
N#CC1(Cc2ccc(Cl)cc2)c2ccccc2C=CN1C(=O)c1ccccc1 (stereo not given) | . | . | . | . | 7.9µM | .
CC1=C(C(=O)Nc2cccc(F)c2)C(c2ccsc2)C2=C(CC(C)(C)CC2=O)N1 (stereo not given) | . | . | . | . | 4µM | .
COc1ccccc1-c1nn(-c2ccccc2)cc1C(=O)N1CCc2ccccc2C1 | / | . | . | ? | 10µM | .
COc1ccc(OC)c(-c2nn(-c3ccccc3)cc2C(=O)N2CCc3ccccc3C2)c1 | / | . | . | . | 13µM | .
COc1ccc(Cn2ncc3c4sc(C)cc4n(C)c3c2=O)cc1 | / | / | / | . | / | /
COc1ccccc1N(C)S(=O)(=O)c1ccc(C(=O)OCC(=O)N(C)c2ccccc2)cc1 | . | . | . | . | 3.2µM | .
COc1ccccc1N(C)S(=O)(=O)c1ccc(C(=O)OCC(=O)Nc2ccccc2F)cc1 | . | . | . | . | . | .
COc1ccc(C2=CC(=O)C[C@H](c3ccc(Cl)cc3)C2)cc1 | / | . | . | . | ? | .
O=C1C=C(c2ccc(OC(F)(F)F)cc2)C[C@@H](c2ccc(Cl)cc2)C1 | / | ? | . | ? | 10µM | .
CCOc1nc(C#N)nc(N2CCOCC2)n1 | / | / | / | . | / | /
COc1ccc(C(=O)c2c(C(F)(F)F)oc3c2C(=O)c2ccccc2C3=O)cc1 | . | . | . | . | 7.1µM | .
COc1ccc(C2Nc3ccccc3C(=O)N2Cc2ccccc2)cc1COc1ccc(C)cc1 (stereo not given) | / | / | / | . | / | /
COc1ccc(-c2oc(NC(=O)CSc3ncn[nH]3)c(C#N)c2-c2ccc(OC)cc2)cc1 | . | . | . | . | . | .
COc1ccc(CC(=O)Nc2oc(-c3ccccc3)c(-c3ccccc3)c2C#N)cc1OC | . | . | . | . | 2.2µM | .
COc1ccc(-c2oc(NC(=O)CCl)c(C#N)c2-c2ccc(OC)cc2)cc1 | ? | ? | . | . | 2.2µM | .
COc1ccccc1OCC(=O)Nc1oc(-c2ccccc2)c(-c2ccccc2)c1C#N | . | . | . | . | ? | .
CCOC(=O)c1c2c(n(C)c1C)C(=O)C(=O)c1ccc(Br)cc1-2 | / | . | . | . | ? | .

Screening results deposited in PubChem BioAssay by National Center for Advancing Translational Sciences (NCATS).
